Test: Plasma pharmacokinetics by HPLC-ECD after IV dose in rhesus monkeys
Details: combined parent + metabolite; infected rhesus

CC1CCC2C(C)C(OCc3ccc(C(=O)O)cc3)OC3OC4(C)CCC1C32OO4.CC1CCC2C(C)C(OCc3ccc(C(=O)O)cc3)OC3OC4(C)CCC1C32OO4.O (stereo not shown) [IV AL, 4-(10′ dihyro-artemisinin-oxymethyl) benzoic acid hemihydrate]
% AUC0–20 / AUC0–∞: 21.4%
